Ab-14 light chain CDR variants: yeast mating affinities

Reference: Li et al. 2023, doi:10.1038/s41467-023-39022-2. File: FLAb, binding data.

Target peptide (SARS-CoV-2 spike, HR2 region): PDVDLGDISGINAS

Ab-14 is the parent antibody, in scFv form: VH, then the linker GGGGSGGGGSGGGGS, then VL. The heavy chain is unchanged in all variants.
VH: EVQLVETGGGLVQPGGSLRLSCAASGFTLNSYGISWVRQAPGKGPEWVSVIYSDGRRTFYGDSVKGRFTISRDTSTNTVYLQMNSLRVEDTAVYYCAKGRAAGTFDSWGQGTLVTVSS
VL: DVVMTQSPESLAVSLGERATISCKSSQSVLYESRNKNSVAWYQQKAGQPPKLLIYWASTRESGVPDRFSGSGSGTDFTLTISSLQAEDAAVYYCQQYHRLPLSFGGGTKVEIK

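Phage display of a naive human antibody library on the peptide gave the parent. The variants were designed computationally from a first round of random CDR variants and then made and measured. Group labels follow the data file (Ctrl: baseline library sampled from a position-specific scoring matrix, with some repeated check sequences; Rand: our label for a block that the file lists under HC and that is probably the random mutants of the ten best first-round binders; GP: Gaussian process model; HC: hill climbing; Gen: genetic algorithm; Gibbs: Gibbs sampling; a sequence that several methods proposed may carry one label only). AlphaSeq pools MATa yeast showing the antibodies with MATalpha yeast showing the peptide. Mating (16 h, 30 °C) was followed by selection of diploids and sequencing of their barcodes. A regression on co-assayed BCL2-family reference pairs converts the normalised counts of each replicate to an apparent Kd. Mating was done six times.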

Changes read parent residue, position, new residue, counted from the first residue of the VL shown. This list holds designs with at most six substitutions. Each Kd is an estimate from the mating assay, the geometric mean of the replicates in which the pair was seen; lower is stronger. "no signal" means that the variant was in the library but no mating with the target was seen in any replicate; the authors take this as a sign of poor binding, and no number exists. Background: pairings of all light chain designs with three empty control strains gave a value in 4% of cases (median 430 nM, 5th percentile 38 nM). Values in that range, when seen in few replicates, are hard to tell from nonspecific mating. The control count says in how many pairings with the empty strains this scFv gave a signal. The parent sequence was in this pool as ten entries: three were never detected, three once, and four in most replicates, with averages from 2.2 nM to 240 nM. The range of this assay differs from that of the first round, and the authors advise against merging the two. In the paper, a design with two or fewer of six values counts as a poor binder.

The variant S25L/V29N/W56N/S62K [GP_Gen] gave 560 pM (6 of 6 replicates; controls 1 of 18).
The variant S25F/Q27N/N35T/W56N/A57L [Rand] gave 2.1 nM (6 of 6 replicates; controls 1 of 18).
The variant S25L/V29F/S33D/W56N [GP_Gen] gave 500 pM (6 of 6 replicates; controls 2 of 18).
The variant N37D/S38M/W56G [Ctrl] gave 110 nM (2 of 6 replicates; controls 0 of 18).
The variant K24I/S25L/S26D/V29Q/W56N/S62Q [GP_Gibbs] gave 620 pM (6 of 6 replicates; controls 1 of 18).
The variant W56K/H98V [Ctrl] gave 24 nM (4 of 6 replicates; controls 0 of 18).
The variant N35D/N37Q/S58N/E61S [Ctrl] gave 56 nM (2 of 6 replicates; controls 0 of 18).
The variant S25L/S26V/V29Q/W56N [GP_Gen] gave 780 pM (6 of 6 replicates; controls 1 of 18).
The variant S25F/S26L/W56H/S62D/H98G [GP_HC] gave 2.1 nM (6 of 6 replicates; controls 2 of 18).
The variant S28T [Ctrl] gave 18 nM (6 of 6 replicates; controls 0 of 18).
The variant R34G/S38P [Ctrl] gave 710 nM (2 of 6 replicates; controls 1 of 18).
The variant S25L/S26D/V29W/W56N/T59Q [GP_Gen] gave 590 pM (6 of 6 replicates; controls 2 of 18).
The variant S25L/V29N/W56H [GP_Gen] gave 1.6 nM (6 of 6 replicates; controls 2 of 18).
The variant Y31F/S33T/K36S [Ctrl] gave 76 nM (5 of 6 replicates; controls 3 of 18).
The variant S25L/A57G [Ctrl] gave 1.3 nM (6 of 6 replicates; controls 2 of 18).
The variant S25V/Q27I/V29Y/Y31P/W56E [GP_HC] gave 930 pM (6 of 6 replicates; controls 1 of 18).
The variant S25L/L30D/N35Q/W56N/S58Q/E61L [GP_Gibbs] gave 1.2 nM (6 of 6 replicates; controls 0 of 18).
The variant S25M/S26E/V29E/W56N [GP_Gen] gave 840 pM (6 of 6 replicates; controls 0 of 18).
The variant S25L/V29N/W56G [GP_Gen] gave 1.1 nM (6 of 6 replicates; controls 2 of 18).
The variant S25L/S26A/W56E/S62V [GP_Gen] gave 210 pM (6 of 6 replicates; controls 0 of 18).
The variant L30P/Y31P [Ctrl] gave 56 nM (6 of 6 replicates; controls 0 of 18).
The variant S25L/V29Y/W56N/S103M [GP_Gen] gave 500 pM (6 of 6 replicates; controls 3 of 18).
The variant S25T/L30R [Ctrl] gave no signal (0 of 6 replicates; controls 1 of 18).
The variant Y31M/S33E/W56E/E61S [Ctrl] gave 4.6 nM (6 of 6 replicates; controls 0 of 18).
The variant S25L/V29W/W56H/S62D [GP_Gen] gave 3.9 nM (6 of 6 replicates; controls 2 of 18).
The variant S25V/Q27P/V29H/W56D [GP_Gen] gave 860 pM (6 of 6 replicates; controls 2 of 18).
The variant S25E/V29W/L30E/W56G [GP_HC] gave 2.1 nM (6 of 6 replicates; controls 0 of 18).
The variant S25V/L30P/W56N [GP_Gen] gave 2.1 nM (6 of 6 replicates; controls 0 of 18).
The variant E32I/W56G [Ctrl] gave 190 nM (6 of 6 replicates; controls 0 of 18).
The variant Q27Y/S28L/V29D/S58N/T59K/S103E [Ctrl] gave 34 nM (6 of 6 replicates; controls 3 of 18).
The variant S25L/V29W/S38A/W56N/E61M [GP_Gen] gave 1.0 nM (6 of 6 replicates; controls 0 of 18).
The variant S25Q/Y31M/W56D/E61S [GP_HC] gave 840 pM (6 of 6 replicates; controls 0 of 18).
The variant S25V/S26Q/S28H/R34A/W56S [Ctrl] gave 940 pM (6 of 6 replicates; controls 0 of 18).
The variant S25L/N35C/W56N/E61M [GP_Gen] gave 1.6 nM (6 of 6 replicates; controls 1 of 18).
The variant S25F/S28V/N35T/W56N [GP_HC] gave 540 pM (6 of 6 replicates; controls 0 of 18).
The variant S25Y/K36F [Ctrl] gave 17 nM (6 of 6 replicates; controls 0 of 18).
The variant Q27I/V29Y/R34P/W56E/E61C [GP_HC] gave 1.2 nM (6 of 6 replicates; controls 0 of 18).
The variant S25L/L30G/W56E/S62D [GP_Gen] gave 850 pM (6 of 6 replicates; controls 0 of 18).
The variant S25L/L30D/Y31F/W56D [GP_HC] gave 1.0 nM (6 of 6 replicates; controls 1 of 18).
The variant S33E/N37F/Y97P [Ctrl] gave 54 nM (1 of 6 replicates; controls 0 of 18).
The variant Q27I/V29F/Y31E/W56E [GP_HC] gave 670 pM (6 of 6 replicates; controls 3 of 18).
The variant S25M/Y31F/E32Q/W56D [GP_HC] gave 510 pM (6 of 6 replicates; controls 0 of 18).
The variant Y31C/V39I/W56S/Y97G [Ctrl] gave no signal (0 of 6 replicates; controls 1 of 18).
The variant S25L/V29Y/K36F/W56N [GP_Gen] gave 620 pM (6 of 6 replicates; controls 0 of 18).

Excerpt, the first 6 entries:

changes	group	Kd (apparent)	replicates with signal	empty controls
S25L/V29N/W56N/S62K	GP_Gen	560 pM	6 of 6	1 of 18
S25F/Q27N/N35T/W56N/A57L	Rand	2.1 nM	6 of 6	1 of 18
S25L/V29F/S33D/W56N	GP_Gen	500 pM	6 of 6	2 of 18
N37D/S38M/W56G	Ctrl	110 nM	2 of 6	0 of 18
K24I/S25L/S26D/V29Q/W56N/S62Q	GP_Gibbs	620 pM	6 of 6	1 of 18
W56K/H98V	Ctrl	24 nM	4 of 6	0 of 18